The entries are a selection whose mix differs from that of the whole data set. These assays gave more results; the selection is not random. Some of the results follow. The source made the active and inactive calls. Unless noted, the calls are words filed in the database; no cut-off is given here.
Tests used:
[1] = target: T1, DNA polymerase iota (Homo sapiens) (UniProt Q9UNA4); test: qHTS for Inhibitors of Polymerase Iota. [Related pubchem assays (depositor defined):AID588623]; format: functional
T1 sequence (whole entry): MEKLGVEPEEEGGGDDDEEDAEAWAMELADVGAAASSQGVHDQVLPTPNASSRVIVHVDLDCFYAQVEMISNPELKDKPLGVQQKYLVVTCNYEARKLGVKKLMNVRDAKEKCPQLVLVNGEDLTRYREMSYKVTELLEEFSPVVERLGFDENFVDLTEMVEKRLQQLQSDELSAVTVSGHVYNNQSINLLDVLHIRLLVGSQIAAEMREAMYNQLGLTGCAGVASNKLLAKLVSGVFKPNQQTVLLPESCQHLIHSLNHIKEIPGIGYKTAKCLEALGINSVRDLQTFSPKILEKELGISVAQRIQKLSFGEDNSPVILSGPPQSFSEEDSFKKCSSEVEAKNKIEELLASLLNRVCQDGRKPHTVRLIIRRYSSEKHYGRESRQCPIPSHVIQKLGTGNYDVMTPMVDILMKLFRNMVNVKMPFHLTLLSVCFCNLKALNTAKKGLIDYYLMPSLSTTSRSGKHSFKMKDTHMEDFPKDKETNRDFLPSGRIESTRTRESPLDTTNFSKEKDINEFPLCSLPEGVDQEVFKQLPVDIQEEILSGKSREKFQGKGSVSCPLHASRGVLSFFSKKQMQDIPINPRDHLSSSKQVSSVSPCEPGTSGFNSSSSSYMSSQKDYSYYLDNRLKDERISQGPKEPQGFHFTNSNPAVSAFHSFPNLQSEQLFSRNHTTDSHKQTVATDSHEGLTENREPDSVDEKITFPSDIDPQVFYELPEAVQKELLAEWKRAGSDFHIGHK

Sequences of proteins named here, by UniProt entry; tags and fusion partners are left off. A change or cut given only in a name is not applied to a line headed by its entry.
UniProt P11473: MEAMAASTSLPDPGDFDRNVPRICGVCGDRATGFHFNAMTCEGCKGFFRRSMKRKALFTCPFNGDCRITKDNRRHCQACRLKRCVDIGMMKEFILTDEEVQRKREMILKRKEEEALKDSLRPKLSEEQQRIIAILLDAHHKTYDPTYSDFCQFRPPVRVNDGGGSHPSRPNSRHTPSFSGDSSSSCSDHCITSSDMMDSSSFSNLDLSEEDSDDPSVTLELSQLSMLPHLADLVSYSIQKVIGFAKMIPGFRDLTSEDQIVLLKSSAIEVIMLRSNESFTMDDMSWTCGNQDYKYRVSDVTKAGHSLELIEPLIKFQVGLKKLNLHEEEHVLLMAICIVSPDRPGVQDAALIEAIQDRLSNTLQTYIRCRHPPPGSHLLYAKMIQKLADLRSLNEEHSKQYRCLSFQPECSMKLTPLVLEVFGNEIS
UniProt O75496: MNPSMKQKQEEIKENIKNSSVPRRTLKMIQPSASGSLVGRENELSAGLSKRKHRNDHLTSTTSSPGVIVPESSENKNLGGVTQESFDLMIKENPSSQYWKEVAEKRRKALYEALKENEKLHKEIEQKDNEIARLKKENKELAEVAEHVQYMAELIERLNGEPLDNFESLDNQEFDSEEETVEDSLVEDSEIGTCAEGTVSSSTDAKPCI
UniProt P02791: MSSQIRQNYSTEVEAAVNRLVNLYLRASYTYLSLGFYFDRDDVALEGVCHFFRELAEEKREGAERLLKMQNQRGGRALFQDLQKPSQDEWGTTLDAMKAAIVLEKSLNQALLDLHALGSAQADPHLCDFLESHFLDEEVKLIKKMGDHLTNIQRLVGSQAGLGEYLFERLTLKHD
UniProt O75164: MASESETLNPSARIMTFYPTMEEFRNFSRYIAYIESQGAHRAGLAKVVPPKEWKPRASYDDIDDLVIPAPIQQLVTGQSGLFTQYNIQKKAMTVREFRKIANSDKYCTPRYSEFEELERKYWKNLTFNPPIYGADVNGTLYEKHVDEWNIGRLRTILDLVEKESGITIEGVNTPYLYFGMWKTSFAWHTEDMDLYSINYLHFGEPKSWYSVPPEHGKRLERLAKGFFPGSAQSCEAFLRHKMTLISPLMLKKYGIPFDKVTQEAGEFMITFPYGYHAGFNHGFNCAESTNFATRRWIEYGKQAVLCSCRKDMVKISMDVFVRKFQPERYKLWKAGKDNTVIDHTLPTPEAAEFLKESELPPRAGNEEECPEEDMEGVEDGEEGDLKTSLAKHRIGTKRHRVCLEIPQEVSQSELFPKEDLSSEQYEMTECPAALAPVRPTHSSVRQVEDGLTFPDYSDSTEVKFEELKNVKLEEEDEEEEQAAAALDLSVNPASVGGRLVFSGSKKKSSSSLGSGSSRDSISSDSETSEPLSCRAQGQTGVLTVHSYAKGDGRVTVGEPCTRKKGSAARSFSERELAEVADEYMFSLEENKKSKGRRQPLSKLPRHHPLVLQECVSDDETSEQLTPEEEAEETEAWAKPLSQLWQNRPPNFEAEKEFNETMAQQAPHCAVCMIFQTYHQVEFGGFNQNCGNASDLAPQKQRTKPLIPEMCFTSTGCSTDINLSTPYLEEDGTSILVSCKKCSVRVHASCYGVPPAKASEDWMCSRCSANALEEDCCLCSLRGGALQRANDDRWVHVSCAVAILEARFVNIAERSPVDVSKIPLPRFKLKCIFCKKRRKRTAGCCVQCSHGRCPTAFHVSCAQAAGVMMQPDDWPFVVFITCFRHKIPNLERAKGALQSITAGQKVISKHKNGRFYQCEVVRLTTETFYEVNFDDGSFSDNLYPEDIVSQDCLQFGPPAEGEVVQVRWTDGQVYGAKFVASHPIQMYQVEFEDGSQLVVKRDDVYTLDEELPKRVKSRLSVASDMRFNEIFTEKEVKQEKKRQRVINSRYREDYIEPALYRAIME
UniProt P53350, whole entry, looked up: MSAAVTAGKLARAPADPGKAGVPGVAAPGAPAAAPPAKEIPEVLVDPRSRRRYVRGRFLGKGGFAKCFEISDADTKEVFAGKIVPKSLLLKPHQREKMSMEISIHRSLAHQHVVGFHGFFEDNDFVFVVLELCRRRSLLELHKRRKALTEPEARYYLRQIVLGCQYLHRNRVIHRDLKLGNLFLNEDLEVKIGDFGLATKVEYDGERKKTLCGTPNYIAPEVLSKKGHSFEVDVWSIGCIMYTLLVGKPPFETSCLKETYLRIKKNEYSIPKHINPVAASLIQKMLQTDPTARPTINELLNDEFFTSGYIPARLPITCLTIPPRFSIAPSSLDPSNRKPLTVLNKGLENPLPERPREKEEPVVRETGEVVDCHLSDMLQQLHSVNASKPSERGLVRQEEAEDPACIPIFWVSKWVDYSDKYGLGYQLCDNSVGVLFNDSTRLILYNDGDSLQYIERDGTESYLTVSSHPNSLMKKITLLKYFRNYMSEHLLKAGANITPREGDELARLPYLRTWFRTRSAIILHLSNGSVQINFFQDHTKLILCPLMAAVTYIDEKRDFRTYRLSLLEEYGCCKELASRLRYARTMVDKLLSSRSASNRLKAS
UniProt P51151: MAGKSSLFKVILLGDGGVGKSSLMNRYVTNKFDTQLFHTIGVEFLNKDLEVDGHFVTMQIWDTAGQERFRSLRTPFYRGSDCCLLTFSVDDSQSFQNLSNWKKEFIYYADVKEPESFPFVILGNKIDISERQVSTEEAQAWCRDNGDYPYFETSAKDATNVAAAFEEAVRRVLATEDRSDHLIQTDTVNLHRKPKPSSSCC
UniProt P42858, whole entry, looked up: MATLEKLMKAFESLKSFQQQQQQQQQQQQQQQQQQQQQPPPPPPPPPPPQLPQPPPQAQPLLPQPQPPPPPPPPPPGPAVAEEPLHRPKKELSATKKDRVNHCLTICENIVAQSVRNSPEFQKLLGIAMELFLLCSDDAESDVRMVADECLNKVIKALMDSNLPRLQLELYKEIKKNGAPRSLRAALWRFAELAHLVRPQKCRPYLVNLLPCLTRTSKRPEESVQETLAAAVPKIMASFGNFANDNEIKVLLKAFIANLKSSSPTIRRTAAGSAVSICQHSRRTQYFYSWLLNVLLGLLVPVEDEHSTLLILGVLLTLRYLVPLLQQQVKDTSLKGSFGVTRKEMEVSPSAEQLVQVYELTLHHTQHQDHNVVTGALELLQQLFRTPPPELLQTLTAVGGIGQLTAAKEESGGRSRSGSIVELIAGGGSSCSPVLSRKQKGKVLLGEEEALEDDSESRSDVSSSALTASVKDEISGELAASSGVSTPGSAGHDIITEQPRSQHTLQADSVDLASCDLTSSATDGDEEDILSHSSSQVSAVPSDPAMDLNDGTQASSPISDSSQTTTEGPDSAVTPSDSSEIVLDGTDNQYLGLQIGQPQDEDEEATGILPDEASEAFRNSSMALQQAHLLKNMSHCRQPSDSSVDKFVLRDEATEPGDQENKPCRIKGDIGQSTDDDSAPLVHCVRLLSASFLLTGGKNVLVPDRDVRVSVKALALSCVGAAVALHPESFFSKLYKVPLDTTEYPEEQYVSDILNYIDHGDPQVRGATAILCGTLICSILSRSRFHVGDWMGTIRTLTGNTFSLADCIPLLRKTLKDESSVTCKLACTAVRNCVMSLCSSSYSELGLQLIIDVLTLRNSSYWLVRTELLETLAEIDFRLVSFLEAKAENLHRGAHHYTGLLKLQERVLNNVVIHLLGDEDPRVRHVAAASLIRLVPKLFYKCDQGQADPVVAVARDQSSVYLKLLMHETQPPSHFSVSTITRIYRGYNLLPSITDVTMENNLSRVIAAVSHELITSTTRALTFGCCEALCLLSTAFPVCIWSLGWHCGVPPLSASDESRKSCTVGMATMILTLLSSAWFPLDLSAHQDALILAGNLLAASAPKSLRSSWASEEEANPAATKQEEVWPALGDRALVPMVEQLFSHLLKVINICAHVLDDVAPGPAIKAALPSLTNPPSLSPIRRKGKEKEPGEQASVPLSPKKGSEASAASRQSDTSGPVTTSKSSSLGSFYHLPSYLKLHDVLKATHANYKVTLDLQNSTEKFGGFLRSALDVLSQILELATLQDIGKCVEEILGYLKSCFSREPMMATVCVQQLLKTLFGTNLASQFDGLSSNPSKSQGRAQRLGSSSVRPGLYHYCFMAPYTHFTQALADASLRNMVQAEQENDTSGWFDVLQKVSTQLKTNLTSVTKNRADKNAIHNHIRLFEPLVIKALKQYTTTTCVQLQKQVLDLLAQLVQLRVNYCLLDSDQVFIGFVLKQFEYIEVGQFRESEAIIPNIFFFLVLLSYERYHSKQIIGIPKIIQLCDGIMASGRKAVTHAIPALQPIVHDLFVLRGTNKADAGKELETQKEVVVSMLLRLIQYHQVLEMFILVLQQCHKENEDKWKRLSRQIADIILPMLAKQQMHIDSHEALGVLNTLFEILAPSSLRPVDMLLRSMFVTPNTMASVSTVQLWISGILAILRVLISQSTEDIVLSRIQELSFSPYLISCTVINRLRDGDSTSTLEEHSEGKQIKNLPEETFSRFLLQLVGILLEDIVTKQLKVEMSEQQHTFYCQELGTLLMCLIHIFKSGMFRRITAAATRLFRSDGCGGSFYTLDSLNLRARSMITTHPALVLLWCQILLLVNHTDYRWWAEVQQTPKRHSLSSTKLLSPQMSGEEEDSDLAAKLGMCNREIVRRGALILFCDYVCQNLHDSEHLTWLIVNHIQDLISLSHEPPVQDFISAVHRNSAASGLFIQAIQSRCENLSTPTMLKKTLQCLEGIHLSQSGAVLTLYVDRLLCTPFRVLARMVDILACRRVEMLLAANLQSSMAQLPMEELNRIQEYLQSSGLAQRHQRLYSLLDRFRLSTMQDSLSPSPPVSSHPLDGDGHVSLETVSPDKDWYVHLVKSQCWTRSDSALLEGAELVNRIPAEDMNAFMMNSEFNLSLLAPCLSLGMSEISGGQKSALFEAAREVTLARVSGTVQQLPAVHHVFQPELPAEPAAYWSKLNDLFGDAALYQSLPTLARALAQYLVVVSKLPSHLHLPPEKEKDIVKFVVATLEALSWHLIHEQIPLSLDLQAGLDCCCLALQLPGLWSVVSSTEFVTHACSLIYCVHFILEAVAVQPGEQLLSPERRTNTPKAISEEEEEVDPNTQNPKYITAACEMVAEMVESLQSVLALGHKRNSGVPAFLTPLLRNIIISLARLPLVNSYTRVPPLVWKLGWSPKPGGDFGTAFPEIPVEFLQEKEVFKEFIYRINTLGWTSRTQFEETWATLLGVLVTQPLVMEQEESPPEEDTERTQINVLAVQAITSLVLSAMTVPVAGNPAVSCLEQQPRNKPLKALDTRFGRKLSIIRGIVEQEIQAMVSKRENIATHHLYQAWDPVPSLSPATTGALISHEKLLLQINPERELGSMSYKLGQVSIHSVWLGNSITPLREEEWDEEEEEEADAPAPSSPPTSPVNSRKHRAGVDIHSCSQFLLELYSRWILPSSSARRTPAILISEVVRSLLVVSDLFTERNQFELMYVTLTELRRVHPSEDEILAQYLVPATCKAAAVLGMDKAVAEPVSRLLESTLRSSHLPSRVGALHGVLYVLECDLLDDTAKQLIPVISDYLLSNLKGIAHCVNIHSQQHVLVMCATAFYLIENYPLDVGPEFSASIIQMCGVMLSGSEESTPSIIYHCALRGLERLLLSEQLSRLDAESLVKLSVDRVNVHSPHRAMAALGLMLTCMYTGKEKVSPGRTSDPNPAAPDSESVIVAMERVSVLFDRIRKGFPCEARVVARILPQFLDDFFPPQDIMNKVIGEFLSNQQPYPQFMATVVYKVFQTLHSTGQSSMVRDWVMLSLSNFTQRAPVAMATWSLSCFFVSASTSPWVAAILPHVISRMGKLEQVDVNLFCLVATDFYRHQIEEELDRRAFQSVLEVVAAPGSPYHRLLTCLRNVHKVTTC
UniProt Q9Y253: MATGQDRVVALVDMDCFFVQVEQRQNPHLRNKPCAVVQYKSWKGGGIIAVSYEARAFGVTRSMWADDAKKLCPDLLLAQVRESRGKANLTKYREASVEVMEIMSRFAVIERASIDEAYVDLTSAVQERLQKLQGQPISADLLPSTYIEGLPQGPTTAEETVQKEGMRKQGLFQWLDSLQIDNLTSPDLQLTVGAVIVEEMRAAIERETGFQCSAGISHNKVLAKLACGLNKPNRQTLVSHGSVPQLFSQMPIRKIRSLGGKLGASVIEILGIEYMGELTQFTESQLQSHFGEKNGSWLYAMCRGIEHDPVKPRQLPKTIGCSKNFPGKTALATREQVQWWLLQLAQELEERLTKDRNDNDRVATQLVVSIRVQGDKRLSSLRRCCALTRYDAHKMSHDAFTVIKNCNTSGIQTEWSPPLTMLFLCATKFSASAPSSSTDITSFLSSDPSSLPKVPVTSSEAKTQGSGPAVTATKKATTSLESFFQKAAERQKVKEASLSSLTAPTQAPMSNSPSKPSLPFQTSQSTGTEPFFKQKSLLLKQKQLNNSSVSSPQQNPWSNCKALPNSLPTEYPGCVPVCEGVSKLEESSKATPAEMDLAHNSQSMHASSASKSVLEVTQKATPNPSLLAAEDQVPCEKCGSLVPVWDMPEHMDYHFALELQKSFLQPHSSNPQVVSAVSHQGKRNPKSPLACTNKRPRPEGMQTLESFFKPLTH

HepG2 = test: qHTS for Inhibitors of TGF-b: Cytotox Counterscreen. [Related pubchem assays (depositor defined):AID588855, AID588860]; format: functional; settings: Homo sapiens
[2] = target: Glucagon-like peptide 1 receptor (Homo sapiens) (UniProt P43220); test: qHTS of GLP-1 Receptor Inverse Agonists (Inhibition Mode).; format: functional
[3] = target: Vitamin D3 receptor (Homo sapiens) (UniProt P11473); test: Inhibitors of the vitamin D receptor (VDR): qHTS. [Related pubchem assays (depositor defined):AID504855]; format: functional
[4] = target: Mothers against decapentaplegic homolog 3 (Homo sapiens) (UniProt P84022); test: qHTS for Inhibitors of TGF-b. [Related pubchem assays (depositor defined):AID588856, AID588860]; format: functional
Ataxin-2 (Homo sapiens) = Ataxin-2 (Homo sapiens) (UniProt Q99700); test: qHTS for Inhibitors of ATXN expression.; format: functional
[5] = target: Guanine nucleotide-binding protein G(s) subunit alpha isoforms short (Homo sapiens) (UniProt P63092); test: qHTS for Agonist of gsp, the Etiologic Mutation Responsible for Fibrous Dysplasia/McCune-Albright Syndrome: qHTS.; format: functional
[6] = target: Glycoprotein hormones alpha chain (Homo sapiens) (UniProt P01215); test: qHTS for Activators of Integrin-Mediated Alleviation for Muscular Dystrophy.; format: functional
[7] = target: Tyrosyl-DNA phosphodiesterase 1 (Homo sapiens) (UniProt Q9NUW8); test: qHTS for Inhibitors of human tyrosyl-DNA phosphodiesterase 1 (TDP1): qHTS in cells in absence of CPT.; format: functional
[8] = target: Tyrosyl-DNA phosphodiesterase 1 (Homo sapiens) (UniProt Q9NUW8); test: qHTS for Inhibitors of human tyrosyl-DNA phosphodiesterase 1 (TDP1): qHTS in cells in presence of CPT.; format: functional
[9] = target: Parathyroid hormone/parathyroid hormone-related peptide receptor (Homo sapiens) (UniProt Q03431); test: qHTS of PTHR Inhibitors: Primary Screen.; format: functional
[10] = target: T2, 4'-phosphopantetheinyl transferase ffp (Bacillus subtilis) (UniProt Q9F4F7); test: qHTS Assay for Inhibitors of Bacillus subtilis Sfp phosphopantetheinyl transferase (PPTase).; format: functional
T2 sequence (whole entry): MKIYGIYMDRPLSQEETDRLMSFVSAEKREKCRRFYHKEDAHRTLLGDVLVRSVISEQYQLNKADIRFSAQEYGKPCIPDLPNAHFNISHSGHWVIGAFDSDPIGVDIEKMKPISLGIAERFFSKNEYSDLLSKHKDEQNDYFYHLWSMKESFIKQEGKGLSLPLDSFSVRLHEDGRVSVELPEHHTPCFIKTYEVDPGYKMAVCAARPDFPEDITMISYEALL

Geminin (Homo sapiens) [11] = target: Geminin (Homo sapiens) (UniProt O75496); test: A quantitative high throughput screen for small molecules that induce DNA re-replication in SW480 colon adenocarcinoma cells.; format: functional, cell-based
[12] = target: Ferritin light chain (Equus caballus) (UniProt P02791)
[13] = target: Lysine-specific demethylase 4A (Homo sapiens) (UniProt O75164); test: qHTS Assay for Inhibitors of JMJD2A-Tudor Domain. [Related pubchem assays (depositor defined):AID504402]; format: functional
[14] = target: Serine/threonine-protein kinase PLK1 (Homo sapiens) (UniProt P53350); test: qHTS for Inhibitors of PLK1-PDB (polo-like kinase 1 - polo-box domain): Primary Screen.; format: functional
[15] = target: 15-hydroxyprostaglandin dehydrogenase [NAD(+)] (Homo sapiens) (UniProt P15428)
microRNA 21 = test: qHTS Assay for Modulators of miRNAs and/or Activators of miR-21.; format: functional; settings: Homo sapiens
Drosophila = test: qHTS Assay for Lipid Storage Modulators in Drosophila S3 Cells.; format: functional
[16] = target: TAR DNA-binding protein 43 (Homo sapiens) (UniProt Q13148); test: qHTS of TDP-43 Inhibitors.; format: functional
[17] = target: Ras-related protein Rab-9A (Homo sapiens) (UniProt P51151); test: qHTS Assay for Rab9 Promoter Activators.; format: functional
[18] = target: Huntingtin (Homo sapiens) (UniProt P42858); test: qHTS Multiplex Assay to Identify Dual Action Probes in a Cell Model of Huntington: Aggregate Formation (GFP). [Related pubchem assays: 1482, 1471 ]; format: functional
[19] = qHTS Assay for Compounds that Induce Erasure of Genomic Imprints.; format: functional
[20] = target: Pyruvate kinase PKM (Homo sapiens) (UniProt P14618); test: qHTS Assay for Inhibitors of Human Muscle isoform 2 Pyruvate Kinase. [Related pubchem assays: 1379 ]; format: functional
[21] = target: T3, Nuclear receptor ROR-gamma (Mus musculus) (UniProt P51450); test: qHTS for inhibitors of ROR gamma transcriptional activity.; format: functional
T3 sequence (whole entry): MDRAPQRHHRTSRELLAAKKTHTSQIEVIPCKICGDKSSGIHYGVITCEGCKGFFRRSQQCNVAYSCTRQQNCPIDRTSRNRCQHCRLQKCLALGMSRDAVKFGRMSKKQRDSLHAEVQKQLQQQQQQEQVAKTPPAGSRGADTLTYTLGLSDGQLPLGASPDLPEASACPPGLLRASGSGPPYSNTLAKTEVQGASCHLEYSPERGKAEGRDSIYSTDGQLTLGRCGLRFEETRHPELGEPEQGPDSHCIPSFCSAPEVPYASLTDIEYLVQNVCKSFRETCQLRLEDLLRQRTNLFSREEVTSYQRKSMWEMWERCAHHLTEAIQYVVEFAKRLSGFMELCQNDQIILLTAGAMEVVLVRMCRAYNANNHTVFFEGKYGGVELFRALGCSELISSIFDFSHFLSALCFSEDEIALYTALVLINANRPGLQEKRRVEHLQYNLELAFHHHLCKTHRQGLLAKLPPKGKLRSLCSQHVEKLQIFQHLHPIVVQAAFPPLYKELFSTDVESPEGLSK

[22] = target: Lethal(3)malignant brain tumor-like protein 1 (Homo sapiens) (UniProt Q9Y468); test: qHTS Assay for the Inhibitors of L3MBTL1. [Related pubchem assays: 485292 (Probe Development Summary for Inhibitors of L3MBTL1)]; format: functional
[23] = target: T4, Histone-lysine N-methyltransferase EHMT2 (Homo sapiens) (UniProt Q96KQ7); test: qHTS Assay for Inhibitors of Histone Lysine Methyltransferase G9a. [Related pubchem assays (depositor defined):AID504404]; format: functional
T4 sequence (whole entry): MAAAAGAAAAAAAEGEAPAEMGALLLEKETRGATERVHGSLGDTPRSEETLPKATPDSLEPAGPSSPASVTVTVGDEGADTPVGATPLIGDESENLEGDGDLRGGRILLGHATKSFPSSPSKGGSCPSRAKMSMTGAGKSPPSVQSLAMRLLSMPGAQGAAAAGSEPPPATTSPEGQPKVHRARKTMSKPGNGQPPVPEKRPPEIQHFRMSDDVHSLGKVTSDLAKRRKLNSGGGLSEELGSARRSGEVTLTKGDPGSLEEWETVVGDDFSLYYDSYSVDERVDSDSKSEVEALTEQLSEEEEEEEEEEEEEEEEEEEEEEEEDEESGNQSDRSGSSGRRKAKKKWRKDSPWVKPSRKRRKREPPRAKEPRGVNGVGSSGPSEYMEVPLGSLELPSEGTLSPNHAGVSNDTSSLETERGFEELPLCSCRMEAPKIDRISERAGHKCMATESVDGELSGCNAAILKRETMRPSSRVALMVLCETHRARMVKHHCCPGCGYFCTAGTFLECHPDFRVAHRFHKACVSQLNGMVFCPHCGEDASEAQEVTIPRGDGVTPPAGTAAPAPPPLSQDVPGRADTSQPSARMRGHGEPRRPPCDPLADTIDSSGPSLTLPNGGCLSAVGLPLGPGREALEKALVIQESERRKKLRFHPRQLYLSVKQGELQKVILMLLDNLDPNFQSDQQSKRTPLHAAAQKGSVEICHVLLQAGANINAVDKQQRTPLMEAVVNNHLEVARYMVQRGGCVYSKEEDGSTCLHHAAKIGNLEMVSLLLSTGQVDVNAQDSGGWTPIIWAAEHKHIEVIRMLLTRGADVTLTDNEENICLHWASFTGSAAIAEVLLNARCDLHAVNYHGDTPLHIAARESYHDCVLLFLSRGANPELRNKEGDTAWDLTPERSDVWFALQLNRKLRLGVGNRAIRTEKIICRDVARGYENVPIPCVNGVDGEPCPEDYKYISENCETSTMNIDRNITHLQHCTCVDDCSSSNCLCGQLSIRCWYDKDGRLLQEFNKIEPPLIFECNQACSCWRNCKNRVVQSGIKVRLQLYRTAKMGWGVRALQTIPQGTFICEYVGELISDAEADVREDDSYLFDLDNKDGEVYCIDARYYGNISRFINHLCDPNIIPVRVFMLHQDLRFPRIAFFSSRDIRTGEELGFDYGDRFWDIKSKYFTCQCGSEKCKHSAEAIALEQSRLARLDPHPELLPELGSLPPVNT

[24] = target: T5, Thioredoxin reductase 1, cytoplasmic (Rattus norvegicus) (UniProt O89049); test: qHTS Assay for Inhibitors of Mammalian Selenoprotein Thioredoxin Reductase 1 (TrxR1): qHTS. [Related pubchem assays (depositor defined):AID488771]; format: functional
T5 sequence (whole entry): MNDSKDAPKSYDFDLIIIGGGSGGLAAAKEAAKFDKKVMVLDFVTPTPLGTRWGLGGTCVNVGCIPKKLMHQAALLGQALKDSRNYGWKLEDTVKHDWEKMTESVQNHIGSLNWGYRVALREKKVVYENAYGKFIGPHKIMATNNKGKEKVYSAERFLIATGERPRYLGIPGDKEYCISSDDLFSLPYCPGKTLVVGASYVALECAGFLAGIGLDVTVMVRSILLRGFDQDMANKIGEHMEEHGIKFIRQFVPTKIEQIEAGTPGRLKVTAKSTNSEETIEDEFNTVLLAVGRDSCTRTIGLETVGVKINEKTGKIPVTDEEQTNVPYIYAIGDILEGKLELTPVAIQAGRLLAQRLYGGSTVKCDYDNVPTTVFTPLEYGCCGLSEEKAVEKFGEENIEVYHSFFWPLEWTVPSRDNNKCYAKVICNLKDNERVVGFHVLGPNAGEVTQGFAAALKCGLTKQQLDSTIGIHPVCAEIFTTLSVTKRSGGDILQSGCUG

[25] = target: Breast cancer type 1 susceptibility protein (Homo sapiens) (UniProt P38398); test: qHTS Assay to Identify Small Molecule Activators of BRCA1 Expression.; format: functional
Geminin (Homo sapiens) [26] = target: Geminin (Homo sapiens) (UniProt O75496); test: A quantitative high throughput screen for small molecules that induce DNA re-replication in MCF 10a normal breast cells.; format: functional
[27] = qHTS for induction of synthetic lethality in tumor cells producing 2HG: qHTS for the HT-1080-IDH1KD cell line.; format: functional
[28] = target: DNA polymerase eta (Homo sapiens) (UniProt Q9Y253); test: qHTS for Inhibitors of Polymerase Eta: Confirmatory Assay for Cherry-picked Compounds.; format: functional

Nc1ccc2c(ccc3cccnc32)n1
Potency [1]: inactive
Potency (HepG2): inactive
Potency [2]: inactive

O=C(NC1CCS(=O)(=O)C1)NP(=S)(Oc1ccccc1)Oc1ccccc1 (stereo unspecified)
Potency [3]: inactive

O=C(CBr)c1ccc(Cl)cc1
Potency (HepG2): inactive

Cc1ccc(Nc2c([N+](=O)[O-])cc([N+](=O)[O-])cc2[N+](=O)[O-])cc1
Potency (HepG2): inactive
Potency [4]: active: 15.8 µM
Potency (Ataxin-2 (Homo sapiens)): active: 10 µM
Potency [5]: inactive
Potency [6]: inactive
Potency [7]: active: 5.8 µM
Potency [8]: active: 16.4 µM
Potency [9]: inactive

CC(C)C(=O)NC(Sc1ccccc1)C(Cl)(Cl)Cl (stereo unspecified)
Potency [10]: inactive

CC1=NCCc2c1[nH]c1ccccc21
Potency (HepG2): inactive
Potency (Geminin (Homo sapiens) [11]): inactive
Potency [12]: inactive

Cc1nc2ccc3ccccc3c2s1
Potency [13]: active: 56.2 µM
Potency [14]: active: 29.9 µM
Potency [15]: active: 28.2 µM

Cc1ccc2nc3c(c(C)c2c1)CC(C(Cl)Cl)S3 (stereo unspecified)
Potency (microRNA 21): inactive

NC(=NO)c1c(N)no[n+]1[O-]
Potency (Drosophila): active: 14.6 µM
Potency [16]: inactive

CCc1nc2c([nH]1)c1no[n+]([O-])c1c1no[n+]([O-])c21
Potency [17]: inactive
Potency [18]: active: 11.2 µM
Potency [19]: inactive
Potency [20]: inactive
Potency [21]: active: 12.6 µM
Potency [10]: active: 56.2 µM
Potency [22]: active: 5.01 µM
Potency [23]: active: 56.2 µM
Potency [24]: active: 11.2 µM
Potency [1]: active: 10 µM
Potency (HepG2): inactive
Potency [4]: active: 15.8 µM
Potency (Ataxin-2 (Homo sapiens)): active: 15.8 µM
Potency [25]: inactive
Potency (Geminin (Homo sapiens) [26]): active: 2.91 µM
Potency [6]: inactive
Potency [27]: active: 20.6 µM
Potency [28]: active: 84.9 µM

Source: ChEMBL document CHEMBL1201862, “PubChem BioAssay data set” (2004)
